Among the data in ChEMBL document CHEMBL1125019 (J Med Chem, 1990) are IC50 values, retold here.

Sequences of proteins named here, by UniProt entry; tags and fusion partners are left off.
UniProt P61169, whole entry: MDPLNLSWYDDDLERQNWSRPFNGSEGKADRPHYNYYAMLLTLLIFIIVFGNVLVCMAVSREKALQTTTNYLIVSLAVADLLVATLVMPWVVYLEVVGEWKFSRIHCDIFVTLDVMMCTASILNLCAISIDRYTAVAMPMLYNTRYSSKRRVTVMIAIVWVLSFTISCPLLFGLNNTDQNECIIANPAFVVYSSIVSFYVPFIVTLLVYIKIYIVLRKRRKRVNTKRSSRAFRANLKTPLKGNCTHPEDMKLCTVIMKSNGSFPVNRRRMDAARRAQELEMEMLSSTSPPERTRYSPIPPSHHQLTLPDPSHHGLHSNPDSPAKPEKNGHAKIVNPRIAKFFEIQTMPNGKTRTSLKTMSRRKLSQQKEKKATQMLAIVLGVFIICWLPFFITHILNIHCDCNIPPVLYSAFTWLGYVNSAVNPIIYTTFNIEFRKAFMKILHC

Molecules are shown by their SMILES.

For this test, the target named is D(2) dopamine receptor (Rattus norvegicus, UniProt P61169). The test can be described thus: Binding affinity against Dopamine receptor D2 from rat brain corpus striatum membrane.

The compound `CN1CCc2cccc3c2[C@H]1Cc1ccc(O)c(O)c1-3` [APOMORPHINE] displayed an IC50 of 66.7 nM.

In general, IC50 refers to the concentration at which inhibition is half-maximal.
